# Test: Hydrolysis in fresh EDTA stabilized blood plasma at 37° C.
# Conditions: mixture of isomers, 1.1 mg, four hour period
substance,measurement,value
"hydrocodone 2,4-pentanediol ketal",ketal hydrolyzed to parent opioid in blood plasma,approximately 0.2%

# Source: patent US11091496B2, “Opioid ketal compounds and uses thereof” (priority 2013, dated 2021)
